Patent publication US20040138234A1, “Histamine receptor antagonists” (Pfizer Inc, priority 2001, published 2004)

Amino acid sequences for entries named in this document (tags omitted). Chains listed by the source or under a name are the forms on record and can include a tag or linker.
UniProt Q9Y5N1, with tags, fused parts or gaps DEL228-354: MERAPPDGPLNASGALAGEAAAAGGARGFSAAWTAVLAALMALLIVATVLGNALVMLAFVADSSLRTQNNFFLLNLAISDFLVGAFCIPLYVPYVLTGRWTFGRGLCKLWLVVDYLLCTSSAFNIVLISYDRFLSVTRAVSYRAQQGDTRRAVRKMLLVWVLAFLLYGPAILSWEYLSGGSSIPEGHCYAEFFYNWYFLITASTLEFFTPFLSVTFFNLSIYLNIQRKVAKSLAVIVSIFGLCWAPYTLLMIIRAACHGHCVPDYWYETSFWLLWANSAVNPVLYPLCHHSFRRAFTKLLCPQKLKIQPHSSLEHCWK

Biological target: histamine H3 receptor (Homo sapiens, UniProt Q9Y5N1)
Assay: Histamine H3 receptor radioligand binding, human brain tissue
Source text: The cDNA for the human histamine H3 and H4 receptor can be expressed in a suitable cell line such as HEK293 or CHO. In addition membranes can be prepared from tissues or cells which naturally express either the histamine H3 and/or H4 receptor. Affinity can be assessed at either receptor by assessing the ability of ligands to inhibit the binding of a suitable radioactively labelled ligand to membranes containing either the histamine H3 or H4 receptor. The potency of compounds is compared by calculating their pKI values.

SMILES: NC(=NCc1ccc(Cl)cc1)SCCCc1cnc[nH]1 [Clobenpropit]
- Ki: 2.34 nM
